Experimental data as given in the Kinase Knowledgebase extract (Sharma et al. 2016).
Where “and” joins values, the source holds several entries; their conditions need not be identical. Identical values can stand only once.

Chains of the proteins cited; added tags and fusions are not shown.
UniProt P00533, whole entry, looked up: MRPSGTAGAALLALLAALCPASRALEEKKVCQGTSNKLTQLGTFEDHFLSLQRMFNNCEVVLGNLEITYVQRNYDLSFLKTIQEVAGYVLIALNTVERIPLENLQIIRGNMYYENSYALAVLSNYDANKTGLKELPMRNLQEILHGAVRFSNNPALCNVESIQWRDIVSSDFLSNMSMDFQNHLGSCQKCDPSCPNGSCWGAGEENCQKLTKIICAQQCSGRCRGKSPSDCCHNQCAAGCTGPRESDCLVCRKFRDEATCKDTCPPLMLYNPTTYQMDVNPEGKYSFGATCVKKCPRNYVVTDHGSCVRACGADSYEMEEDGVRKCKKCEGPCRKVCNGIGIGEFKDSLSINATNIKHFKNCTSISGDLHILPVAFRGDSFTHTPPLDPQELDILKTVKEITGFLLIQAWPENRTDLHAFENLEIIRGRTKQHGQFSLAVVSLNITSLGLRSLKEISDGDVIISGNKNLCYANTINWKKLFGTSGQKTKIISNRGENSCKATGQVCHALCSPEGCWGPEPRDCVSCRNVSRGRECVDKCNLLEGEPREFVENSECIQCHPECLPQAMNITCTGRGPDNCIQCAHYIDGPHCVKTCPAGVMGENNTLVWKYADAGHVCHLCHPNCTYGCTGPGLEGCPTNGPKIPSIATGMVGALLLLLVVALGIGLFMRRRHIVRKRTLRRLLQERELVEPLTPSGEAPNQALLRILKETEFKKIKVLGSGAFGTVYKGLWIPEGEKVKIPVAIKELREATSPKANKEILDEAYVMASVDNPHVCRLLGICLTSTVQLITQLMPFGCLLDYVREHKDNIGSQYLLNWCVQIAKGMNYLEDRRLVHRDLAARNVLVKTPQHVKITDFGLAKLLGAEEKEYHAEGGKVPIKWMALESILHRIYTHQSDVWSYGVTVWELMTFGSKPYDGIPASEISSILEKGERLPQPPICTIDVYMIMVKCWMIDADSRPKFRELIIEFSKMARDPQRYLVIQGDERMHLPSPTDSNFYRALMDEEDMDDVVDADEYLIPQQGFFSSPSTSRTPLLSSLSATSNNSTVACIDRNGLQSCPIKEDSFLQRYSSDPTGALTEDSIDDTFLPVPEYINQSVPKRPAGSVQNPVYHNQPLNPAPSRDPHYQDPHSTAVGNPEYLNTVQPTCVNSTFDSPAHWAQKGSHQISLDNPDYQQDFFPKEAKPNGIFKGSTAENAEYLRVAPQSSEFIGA

Target: EGFR (human) (UniProt P00533)
Conditions: a431

IC50: 0.102 µg/mL and 0.044 µg/mL
Compound: CCOc1cc2ncc(C#N)c(Nc3cccc(Br)c3)c2cc1NC(=O)/C=C/CN1CCOCC1
